From US6750008B1, “Methods and compositions for inhibition of membrane fusion-associated events, including HIV transmission” (priority 1999, dated 2004)

The chains behind the UniProt entries cited, without tags or fusion partners. Residues count along the entry.
UniProt P03420, 142-302: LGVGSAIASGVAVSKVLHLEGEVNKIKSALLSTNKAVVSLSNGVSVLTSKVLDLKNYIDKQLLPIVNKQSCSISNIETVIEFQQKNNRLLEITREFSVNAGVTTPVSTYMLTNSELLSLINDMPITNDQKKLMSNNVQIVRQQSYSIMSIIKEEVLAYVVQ

Key:
[1] = tested on: RSV; assay: Anti-RSV antiviral activity assay (syncytial formation, Hep-2 cells); format: cell-based, respiratory syncytial virus; details: purified peptides
Protocol: The assay utilized herein tested the ability of the peptides to disrupt the ability of HEp2 cells acutely infected with RSV (i.e., cells which are infected with a multiplicity of infection of greater than 2) to fuse and cause syncytial formation on a monolayer of uninfected an uninfected line of Hep-2 cells. The lower the observed level of fusion, the greater the antiviral activity of the peptide was determined to be. […]
After incubation, cells in control wells were checked for fusion centers, media was removed from the wells, followed by addition, to each well, of either Crystal Violet stain or XTT. […] The number of syncytia per well were then counted, using a dissecting microscope.
With respect to XTT (2,3-bis[2-Methoxy-4-nitro-5-sulfophenyl]-2H-tetrazolium-5-carboxyanilide inner salt), 50 μl XTT (1 mg/ml in RPMI buffered with 100 mM HEPES, pH 7.2-7.4, plus 5% DMSO) were added to each well. The OD450/690 was measured (after blanking against growth medium without cells or reagents, and against reagents) according to standard procedures. […]

[2] = target: T1, DP107-like domain of the RSV F1 protein (Human respiratory syncytial virus A, UniProt P03420); format: binding
T1 construct: made in house
Protocol: After incubation and washing, unbound Fab-d is removed from the plates and bound Fab-d is quantitated. A no-inhibitor control should also be conducted.
Such an assay takes advantages of accepted radioligand and receptor binding principles.
Specifically, the DNA sequence corresponding amino acid residues 142-302 of the RSV F1 protein was amplified by PCR and cloned into the Xmn I site of the expression vector pMal-p2 (New England Biolab) to give MF5.1. These amino acid residues correspond to the extracellular domain of the RSV F1 protein including its DP107 region but excluding the DP178 region.
Cell fusion assays were performed with each of the peptides as described in Section 17 above. The binding affinity of each peptide was also measured in a competitive binding assay described in Section 5.6.1 above, wherein the concentration of each peptide necessary to bind to the M5.1 fusion protein (i.e., the B50 value), and thereby disrupt binding of biotin labeled T112 (T888) to the fusion protein, was measured.

Structure (SMILES): CC[C@H](C)[C@H](NC(=O)[C@H](Cc1ccccc1)NC(=O)[C@H](C)NC(=O)[C@H](CC(C)C)NC(=O)[C@H](CO)NC(=O)[C@H](CCC(N)=O)NC(=O)[C@H](CC(N)=O)NC(=O)[C@@H](NC(=O)[C@H](CCCCN)NC(=O)[C@H](CCC(=O)O)NC(=O)[C@H](CC(N)=O)NC(=O)[C@@H](NC(=O)[C@H](CCC(N)=O)NC(=O)[C@H](CO)NC(=O)[C@@H](NC(=O)[C@H](CO)NC(=O)[C@H](C)NC(=O)[C@H](CC(=O)O)NC(=O)[C@H](Cc1ccccc1)NC(=O)[C@H](CCC(=O)O)NC(=O)[C@H](CC(=O)O)NC(C)=O)[C@@H](C)CC)C(C)C)[C@@H](C)CC)C(=O)N[C@@H](CCCNC(=N)N)C(=O)N[C@@H](CCCCN)C(=O)N[C@@H](CO)C(=O)N[C@@H](CC(=O)O)C(=O)N[C@@H](CCC(=O)O)C(=O)N[C@@H](CC(C)C)C(=O)N[C@@H](CC(C)C)C(N)=O [T-67]
- anti-RSV antiviral activity [1]: potent anti-viral activity
- binding affinity relative to T112 [2]: five times lower
